# Apparent affinities of Ab-95 variants for a coronavirus HR2 peptide

Source: Engelhart et al. 2022 (doi:10.1038/s41597-022-01779-4), MIT Lincoln Laboratory and A-Alpha Bio; data file from the FLAb repository.

The target is the same throughout: PDVDLGDISGINAS, from the HR2 region of SARS-CoV-2 spike.

Parent: Ab-95, a human scFv built as VH, a (GGGGS)3 linker, VL. Only the CDRs of the light chain vary.
VH: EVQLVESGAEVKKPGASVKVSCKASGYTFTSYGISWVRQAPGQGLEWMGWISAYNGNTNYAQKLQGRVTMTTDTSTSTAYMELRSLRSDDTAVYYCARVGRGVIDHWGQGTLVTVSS
VL: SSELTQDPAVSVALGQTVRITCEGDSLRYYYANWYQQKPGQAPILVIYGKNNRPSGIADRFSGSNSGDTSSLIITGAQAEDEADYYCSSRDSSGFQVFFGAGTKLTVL

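The starting antibody came from a phage panning campaign against this peptide. Library AAYL52 holds single substitutions and randomly drawn double and triple substitutions in the CDRs. Affinity was read by AlphaSeq, a pooled yeast mating assay with surface-displayed partners. Mating (16 h, 30 °C) was followed by selection of diploids and sequencing of their barcodes. A regression on co-assayed BCL2-family reference pairs converts the normalised counts of each replicate to an apparent Kd. The assay was run in three technical replicates.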

Changes read parent residue, position, new residue, counted from the first residue of the VL shown. Affinities are written as log10 Kd with Kd in nM; a lower number is a better binder. Replicates are averaged; those with no signal do not enter the mean. A pair that was not seen in that replicate is written "ND"; this usually means weak binding, but a binder can also be missed. For reference, the parent read 2.31 as the reference entry and 2.25 as a member of this library. Three control strains display no target. For library AAYL52, 28% of the pairings with them gave a signal, with a median of 3.91 and one signal in twenty below 2.90, so weak values seen in few replicates may be background. For each scFv, signals with the empty controls are counted beside the result, with their mean in brackets.

changes | replicates, log10 nM | mean, log10 nM | control signals
E23K D25Y S26H | 2.28 / 2.32 / 2.14 | 2.25 | 1/9 (3.02)
S26G G49M R90F | ND / 5.32 / ND | 5.32 | 0/9
R53T S92T F95I | ND / ND / 2.37 | 2.37 | 0/9
E23A P54E D91K | 3.28 / 2.76 / 3.30 | 3.11 | 2/9 (4.78)
D25L R53P G94H | ND / ND / ND | ND | 0/9
A32I P54Y S55T | ND / ND / ND | ND | 0/9
L27S P54M S93H | 3.38 / 5.60 / 4.42 | 4.47 | 2/9 (4.18)
Y31W N33Q | 4.08 / 3.42 / ND | 3.75 | 2/9 (4.24)
L27N V97W | 3.02 / 3.29 / 3.53 | 3.28 | 4/9 (4.45)
R28Y S88T S93R | ND / 3.58 / 4.18 | 3.88 | 4/9 (3.96)
L27K K50C R90Y | ND / 4.13 / ND | 4.13 | 3/9 (4.09)
S26F S88N S89A | 3.71 / 3.21 / 3.40 | 3.44 | 1/9 (4.17)
G24E A32Q F95D | 3.74 / ND / ND | 3.74 | 4/9 (3.67)
L27H R28Q Y30D | 2.24 / 2.65 / 2.30 | 2.40 | 2/9 (4.95)
G24V K50V Q96W | 3.76 / ND / ND | 3.76 | 1/9 (3.67)
G24V N33A N51L | 4.01 / ND / 2.55 | 3.28 | 4/9 (4.33)
L27E Y31T S93F | ND / 3.35 / ND | 3.35 | 1/9 (3.16)
R28I Y31L S88V | 2.72 / 2.26 / 2.53 | 2.50 | 4/9 (4.25)
Y29N R90N V97M | ND / ND / ND | ND | 0/9
S26R A32M G94C | 4.73 / 5.19 / ND | 4.96 | 1/9 (3.69)
G49M N51S S93E | ND / ND / ND | ND | 1/9 (4.26)
E23Q S92G F98W | 2.21 / 1.86 / 1.95 | 2.01 | 5/9 (3.53)
S88A S89I | 3.53 / ND / 3.88 | 3.71 | 3/9 (3.71)
N51Y P54A Q96W | ND / ND / ND | ND | 0/9
G24D S89Q | ND / ND / ND | ND | 1/9 (3.80)
D91W S92C G94T | 3.30 / 2.60 / 2.60 | 2.83 | 3/9 (4.14)
Y30W F98N | 2.84 / 3.17 / 2.32 | 2.77 | 1/9 (3.43)
G49F N52A V97R | ND / ND / ND | ND | 1/9 (4.08)
G24M L27D P54Y | ND / 3.92 / ND | 3.92 | 2/9 (3.72)
L27C S88I D91A | ND / ND / ND | ND | 5/9 (4.22)
G24Y D25C S92W | ND / 4.01 / ND | 4.01 | 1/9 (2.87)
K50L R90A | 2.21 / 2.85 / 3.28 | 2.78 | 4/9 (3.82)
L27T P54I Q96L | ND / 3.88 / 3.76 | 3.82 | 3/9 (4.49)
S89T S92E G94C | 3.98 / 2.79 / 3.86 | 3.55 | 0/9
S26C Y30N D91Y | ND / ND / ND | ND | 3/9 (3.36)
D25L S26F S88G | ND / ND / ND | ND | 0/9
R28T S88H D91R | 2.13 / 2.86 / 3.02 | 2.67 | 1/9 (3.45)

6 of these entries, quoted again:

changes	replicates, log10 nM	mean, log10 nM	control signals
G24Y D25C S92W	ND / 4.01 / ND	4.01	1/9 (2.87)
R28T S88H D91R	2.13 / 2.86 / 3.02	2.67	1/9 (3.45)
E23K D25Y S26H	2.28 / 2.32 / 2.14	2.25	1/9 (3.02)
S26R A32M G94C	4.73 / 5.19 / ND	4.96	1/9 (3.69)
D25L S26F S88G	ND / ND / ND	ND	0/9
L27E Y31T S93F	ND / 3.35 / ND	3.35	1/9 (3.16)